# According to PubChem BioAssay AID588351 (The Scripps Research Institute Molecular Screening Center, 2011):
# The list shows a part of the results, in another mix than the full data. Activity calls are given as the source filed them.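 How the source made its calls: active means mean activation above a set limit taken from the primary screen (cut at about 8% in these data); inactive means the rest.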
# Assay: frataxin promoter-driven luciferase activation – cell-based, luminescence, HEK293 lucGAA850, triplicate, confirmation (AID 588351);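 further: 0% = DMSO wells and 100% = 10 µM SAHA wells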
# Conditions: HEK293 lucGAA850 FXN promoter luciferase reporter, 24 h; at 6 µM; active compounds read high; 100% = activation by SAHA
row,Structure (SMILES),activation
1,CCc1nc2c(n1)c1c(non1O)c1c2no[n+]1[O-],active: 29.5%
2,CC(=O)NC(SC(=S)N(C)C)C(Cl)(Cl)Cl (configuration not stated),active: 23%
